Experimental findings from patent publication US9259422B2, “Orvinol and thevinol derivatives useful in the treatment of depression” (dated 2016) are described below.

Sequences of proteins named here, by UniProt entry; tags and fusion partners are left off. A change or cut given only in a name is not applied to a line headed by its entry.
UniProt P41145: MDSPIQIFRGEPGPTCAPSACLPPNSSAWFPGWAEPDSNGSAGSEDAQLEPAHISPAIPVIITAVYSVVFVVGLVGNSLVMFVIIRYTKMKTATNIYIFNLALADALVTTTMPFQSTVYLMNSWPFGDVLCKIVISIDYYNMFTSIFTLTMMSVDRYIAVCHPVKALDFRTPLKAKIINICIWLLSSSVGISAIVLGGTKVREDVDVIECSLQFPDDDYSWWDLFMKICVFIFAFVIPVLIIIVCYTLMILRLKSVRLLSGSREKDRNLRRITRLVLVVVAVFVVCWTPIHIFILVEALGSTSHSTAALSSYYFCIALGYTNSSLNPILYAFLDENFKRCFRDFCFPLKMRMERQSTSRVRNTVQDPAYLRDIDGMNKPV
UniProt P33533, whole entry, looked up: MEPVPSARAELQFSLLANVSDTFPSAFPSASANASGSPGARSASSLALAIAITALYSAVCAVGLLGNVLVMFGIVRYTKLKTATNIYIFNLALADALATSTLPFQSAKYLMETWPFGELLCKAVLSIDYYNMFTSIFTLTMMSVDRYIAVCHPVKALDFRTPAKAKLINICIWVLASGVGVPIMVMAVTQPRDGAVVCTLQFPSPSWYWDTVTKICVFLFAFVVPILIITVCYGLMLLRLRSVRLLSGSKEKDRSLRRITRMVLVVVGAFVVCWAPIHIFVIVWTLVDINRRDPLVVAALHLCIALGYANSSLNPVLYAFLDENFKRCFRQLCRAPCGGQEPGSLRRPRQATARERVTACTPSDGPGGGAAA

One assay has as its target human KOR (Homo sapiens (Human), UniProt P41145). Nature of the assay: [35S]GTPγS binding assay, kappa receptor. The note with it: for Kappa % stim (efficacy): single concentration (10 μM) versus the standard U69,593. (GTPγS is a poorly hydrolysed GTP analogue; its binding reports G protein activation.)
The next assay addresses rat DOR (Rattus norvegicus (Rat), UniProt P33533). The assay is described as follows: Ligand binding assay, [3H]diprenorphine, delta (DOP) receptor.

The term Ki denotes the equilibrium dissociation constant of an inhibitor or competing ligand from its target. A high value points to weaker binding.

For `CO[C@]12C=C[C@@]3(C[C@]1(C)[C@H](O)c1ccccc1)[C@H]1Cc4ccc(O)c5c4[C@@]3(CCN1CC1CC1)[C@H]2O5`, at human KOR (against standard agonist U69593), the “Kappa antagonist potency Ke” value was found to be 0.41 nM. The Kb on human KOR (read-out: Kappa antagonist potency Ke, against standard agonist U69593) was 0.41 nM. Also, the “Kappa % stim (efficacy)” value at human KOR stood at 3%.
Regarding `CO[C@]12CC[C@@]3(C[C@]1(C)[C@H](O)c1cccc(C)c1)[C@H]1Cc4ccc(O)c5c4[C@@]3(CCN1CC1CC1)[C@H]2O5`, on human KOR, the “Kappa % stim (efficacy)” value is −1%.
The molecule `CO[C@]12CC[C@@]3(C[C@@H]1[C@H](O)c1ccccc1)[C@H]1Cc4ccc(O)c5c4[C@@]3(CCN1CC1CC1)[C@H]2O5` came in with an inhibitory constant (Ki) on rat DOR of 2.55 nM.
For `CO[C@]12CC[C@@]3(C[C@]1(C)[C@H](O)c1ccc(F)cc1)[C@H]1Cc4ccc(O)c5c4[C@@]3(CCN1CC1CC1)[C@H]2O5`, the “Kappa % stim (efficacy)” value on human KOR is −5%.
